The values that follow come from patent US6515022B2, “Use of inhaled retinoids in the treatment of lung diseases” (Sloan-Kettering Institute for Cancer Research, priority 1996, dated 2003).

Converted amounts (≈) assume the structure as drawn.

One series in a line: physchem. To be noted: organic solvent or mixture.
The conditions of series [1]: solvent HCFC-123 (2,2-dichloro-1,1,1-trifluoroethane).

Usually solubility stands for how much of the substance goes into solution per volume. Take `CC1=C(/C=C/C(C)=C/C=C/C(C)=C/C(=O)O)C(C)(C)CCC1` [all-trans retinoic acid]: the solubility in “physchem” (1,1,2-trichlorofluoroethane) is around 100 µg/mL (≈ 0.333 mM); in “physchem” (HCFC-123 (2,2-dichloro-1,1,1-trifluoroethane), thermodynamic from solid) it was 2000 µg/mL (≈ 6.66 mM). In series [1], the “Maximum Solubility” value was “˜2 mg/ml”.
